PGK inhibitor: blocks T. brucei phosphoglycerate kinase. P07378. PGK/GAPDH coupled, Kinase-Glo luminescence, 60 min. Potency, µM (series often up to 57.5 µM), for inactives: at the top dose activity change, negative = inhibition, hits mostly inhibitors. 380,000 tested, 0.043% active. AID 602233; further: on the % scale 0 is the no-effect control and ±100 the full control effect; nearly all actives have a fitted effect of over 60% in size
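Luminescent ATP detection (Kinase-Glo Plus) follows a 60-minute room-temperature incubation, with wells lacking PGK as controls. Buffer: 100 mM TEA (pH 7.6), 5 mM MgCl2, 0.01% Tween-20. Coupling enzyme GAPDH (100 nM final) supplies unstable 1,3-BPG in-well.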
Rango release inh: prevents RanGTP from dissociating the Rango-importin beta complex. Potency, µM (highest dose often 46.1 µM), inactives show top-dose activity change, negative = inhibition. O95149+P62826. 340,000 tested, 0.071% active. AID 540253. Biochemical FRET Rango-importin beta, RanGTP-induced dissociation; calls by dose curve; further: % of control where 0% means no effect; nearly all actives have a fitted effect of over 45% in size
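Rango/importin beta premix (0.1/0.25 uM final), PBS + 1 mM DTT + 0.02% Tween-20 + 0.1% BSA; cpd 5 min RT; FRET pre-read; + RanGTP-RCC1 (0.6 uM Ran, 2 mM GTP, 0.2 uM RCC1); 45 min RT; FRET post-read, ex 430, em 486/530 nm.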
Tb PFK block: T. brucei PFK enzyme inhibition; O15648; T. brucei PFK, ADP-Glo luminescence; Potency, µM (top dose mostly 57.5 µM), for inactives: top-dose activity, negative = inhibition, hits mostly inhibitors; 330,000 tested, 0.17% active;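 further: 0% = uninhibited 1x PFK enzyme wells and -100% = no-enzyme wells; nearly all actives have a fitted effect of over 60% in size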
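1.25 nM PFK with 0.5 mM F6P and 0.1 mM ATP in 0.1 M TEA pH 8.0, 5 mM MgCl2, incubated 45 min at room temperature; ADP measured by ADP-Glo luminescence; compounds titrated up to 57 uM.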
ELG1 DNA repair: ELG1-dependent DNA repair inhibition; HEK293T ELG1-luciferase reporter, luminescence, 16 h; DNA damage induced by 5-fluorouridine; 330,000 tested, 2.3% active; AID 504467; Potency, µM (titrated, usually from 46.1 µM), for the others: at the top dose activity change, negative = inhibition, actives largely listed as inhibitors; further: on the % scale 0 is the no-effect control and ±100 the full control effect; nearly all actives have a fitted effect of over 55% in size
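HEK293T cells expressing luciferase-tagged ELG1 (2,000/well) received 5-Fluorouridine plus compound or DMSO for 16 hr at 37 °C. Luciferase was read by ONE-Glo luminescence after 30 min at room temperature.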
Rango complex inh: Rango-importin beta binding inhibition | Q14974 | Rango CFP/YFP FRET sensor + importin beta, 45 min | Potency, µM (series often up to 92.2 µM), for the others: top-dose inhibition of complex formation | 340,000 tested, 0.031% active | AID 540263; calls by dose curve;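 further: 0% = DMSO wells and 100% = buffer wells lacking importin beta; nearly all actives have a fitted effect of over 15% in size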
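FRET biosensor (snurportin 1 IBB flanked by EYFP and cerulean), 50 nM, with compound 5 min, then 0.125 microM importin beta in PBS, 1 mM DTT, 0.02% Tween-20, 0.1% BSA. CFP/YFP ratio read after 45 min at room temperature; pre-read flags interference.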
PKM2 act: PKM2 (human) enzyme activation. purified PKM2, Kinase-Glo ATP luminescence, activation; response scale: 0% is enzyme alone, no compound. P14618. Potency, µM (series often up to 57.5 µM), without a hit: at the highest dose activation, actives largely listed as activators. 260,000 tested, 0.34% active. AID 1631; further: on the % scale 0 is the no-effect control and ±100 the full control effect; nearly all actives have a fitted effect of over 55% in size
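Purified hPK-M2 (>95% pure) converted ADP (0.1 mM final) to ATP with 0.5 mM PEP in 50 mM imidazole pH7.2, KCl, MgCl2, Tween 20, BSA; 1 h at room temperature. ATP detected by Kinase-Glo luminescence.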
Active calls of the source: *; i = inactive; ? = inconclusive; . = no result given; [ ] = dose if it differs, or a comment. The list is not random: actives were taken first. Their share in the collection is about 2.4%. Unless noted, the call rests on the fitted dose curve; in most records, active means well fitted curve in the direction sought with a large enough effect; inconclusive means small, poorly fitted or top-dose-only effect, or another doubt; inactive means no such curve, though single readings can be large; an effect the other way counts as inactive or inconclusive. Potency means the concentration at half of the fitted maximal effect.

[1] COc1ccc(C)cc1S(=O)(=O)N(CC(=O)Nc1ccc2c(c1)OCCO2)Cc1ccccc1
[2] Cc1ccc(N(CC(=O)Nc2ccc3c(c2)OCCO3)S(=O)(=O)c2c(C)noc2C)cc1
[3] COc1ccc(N(CC(=O)Nc2ccc3c(c2)OCCO3)S(=O)(=O)c2c(C)noc2C)cc1
[4] O=C(Oc1cccc2cccnc12)c1ccc2c(c1)OCCO2
[5] O=C(N/N=C/c1ccc2c(c1)OCO2)c1ccc(COc2cccc3cccnc23)cc1
[6] O=C(N/N=C/c1ccccc1Br)c1ccc(CSc2cccc3cccnc23)cc1
[7] CC(C)(CNC(=O)c1cccs1)N1CCOCC1
[8] O=C(NNc1nc(=O)c2cccnc2s1)c1ccccc1O
assay / compound	1	2	3	4	5	6	7	8
Rango release inh	?	-3%	-13%	-12%	17%	-4%	1%	24%
PGK inhibitor	0%	8%	i	9%	i	0%	-3%	-2%
ELG1 DNA repair	18µM*	16µM*	-11%	10µM*	18µM*	21µM*	10%	15µM*
Rango complex inh	0%	-5%	-1%	8%	-2%	1%	8%	1%
Tb PFK block	-2%	5%	-2%	2%	-3%	-7%	16%	0%
PKM2 act	0%	0%	-8%	24%	-7%	1%	.	-27%

[9] CC1(C)Cc2c(sc3c2c(=N)n(Cc2ccco2)c(=O)n3Cc2ccccc2)CO1
[10] CC1(C)Cc2c(sc3c2c(=O)n(Cc2ccccc2)c2nncn32)CO1
[11] CCn1c(=O)n(-c2ccc(Cl)cc2)c(=O)c2c3c(sc21)COC(C)(C)C3
[12] CC1(C)Cc2c(sc3c2c(=N)n(Cc2ccco2)c(=O)n3Cc2ccc(Cl)cc2)CO1
[13] Cc1ccc(-c2onc(C)c2C)cc1S(=O)(=O)N1CCc2ccccc21
[14] Cc1nc2ccc(S(=O)(=O)Nc3ccccc3C)cc2s1
[15] CCCc1nn2c(=O)cc(COC(=O)c3ccccc3NC(=O)c3ccc(OCC)cc3)nc2s1
[16] Cc1cccc(CN2C(=O)N/C(=C/c3cc(C)n(-c4cc(C)ccn4)c3C)C2=O)c1
assay / compound	9	10	11	12	13	14	15	16
Rango release inh	10%	7%	3%	1%	.	-4%	.	13µM*[inhibitor]
PGK inhibitor	11%	-5%	-2%	2%	2%	3%	-5%	-7%
ELG1 DNA repair	12µM*	3%	-21%	5.8µM*	.	?	.	?
Rango complex inh	1%	-3%	-1%	0%	.	5%	.	?
Tb PFK block	5%	1%	4%	1%	.	1%	.	3%
PKM2 act	?	2%	-15%	-13%	.	16µM*	.	-3%

[17] Cc1cccc(CN2C(=O)N/C(=C/c3ccc(C)s3)C2=O)c1
[18] CCN(CC)S(=O)(=O)c1cc(NC(=O)CSc2nc3c(cc2C#N)C(=O)CC(C)(C)C3)ccc1C
[19] O=C(CSc1ccc2nnc(-c3ccc(F)cc3)n2n1)N1CCCc2ccccc21
[20] CC(C)OP(=O)(OC(C)C)/C(C=O)=N\Nc1ccc([N+](=O)[O-])cc1
[21] c1ccc(-c2csc(Nc3nc(N4CCOCC4)nc(N4CCOCC4)n3)n2)cc1
[22] Cc1cc(C)nc(Nc2nc(-c3ccccc3)cs2)n1
[23] Cc1ccc(C)c(N2N=C(C(=O)Nc3ccccc3N3CCOCC3)CCC2=O)c1
[24] O=C(Cc1ccccc1)Nc1cc(C(=O)c2ccccc2)ccc1N1CCOCC1
assay / compound	17	18	19	20	21	22	23	24
Rango release inh	?	-2%	7%	-17%	-2%	2%	1%	1%
PGK inhibitor	2%	i	-3%	-4%	-4%	-1%	-15%	-6%
ELG1 DNA repair	4%	21µM*	18µM*	23µM*	5.8µM*	?	15µM*	26µM*
Rango complex inh	?	?	0%	-1%	-2%	3%	0%	-2%
Tb PFK block	3%	10%	-4%	2%	-5%	-1%	1%	0%
PKM2 act	17%	1%	-5%	1%	1%	-5%[11.5 µM]	.	-4%

[25] Cc1cc(C)c(OCC(=O)Nc2ccccc2N2CCOCC2)c(C)c1
[26] Cc1ccc(C)c(N2N=C(C(=O)Nc3ccccc3N3CCCC3)CCC2=O)c1
[27] COc1ccc(N2CCN(c3ncnc4onc(C)c34)CC2)cc1
[28] CC(=O)Nc1cccc(C(=O)OC(C)C(=O)NCc2ccc3c(c2)OCO3)c1 (stereo not given)
[29] Cc1cccc(NS(=O)(=O)c2cc(C(=O)OC(C)C(=O)NCc3ccc4c(c3)OCO4)ccc2C)c1 (stereo not given)
[30] Cc1cccc(CNC(=O)Cn2nc(C)c3nn(-c4ccc(Cl)cc4)c(C)c3c2=O)c1
[31] CCN1CCN(c2cc(N3CCN(C(=O)c4ccco4)CC3)c3c4c(onc24)-c2ccccc2C3=O)CC1
[32] CC1CN(C(=O)CCS(=O)(=O)c2ccccc2)CC(C)O1 (stereo not given)
assay / compound	25	26	27	28	29	30	31	32
Rango release inh	-5%	-5%	.	9%	-5%	.	?	14%
PGK inhibitor	0%	i	6%	-9%	i	-5%	-12%	6%
ELG1 DNA repair	0.82µM*	?	.	12%	23µM*	.	-11%	?
Rango complex inh	5%	0%	.	4%	0%	.	33µM*	4%
Tb PFK block	3%	1%	.	0%	-9%	.	-24%	-6%
PKM2 act	2%	0%	.	.	26%	.	6%[0.46 µM]	-3%

Structures above with an aryl methoxy group, in the order listed:
[1] COc1ccc(C)cc1S(=O)(=O)N(CC(=O)Nc1ccc2c(c1)OCCO2)Cc1ccccc1
[3] COc1ccc(N(CC(=O)Nc2ccc3c(c2)OCCO3)S(=O)(=O)c2c(C)noc2C)cc1
[27] COc1ccc(N2CCN(c3ncnc4onc(C)c34)CC2)cc1
assay / compound	1	3	27
Rango release inh	?	-13%	.
PGK inhibitor	0%	i	6%
ELG1 DNA repair	18µM*	-11%	.
Rango complex inh	0%	-1%	.
Tb PFK block	-2%	-2%	.
PKM2 act	0%	-8%	.

The list continues.
[33] Cc1c(NC(=O)/C(C#N)=C/c2ccc(-c3ccc(Cl)c(Cl)c3)o2)c(=O)n(-c2ccccc2)n1C
[34] Cc1c(NC(=O)/C(C#N)=C/c2ccc(-c3cccc(Cl)c3)o2)c(=O)n(-c2ccccc2)n1C
[35] COc1cc2cnc(-c3ccccc3)c(-c3ccc([N+](=O)[O-])cc3)c2cc1OC
[36] COc1cc2cnc(-c3ccccc3)c(-c3cc(OC)c(OC)c(OC)c3)c2cc1OC
[37] COc1ccc([C@H]2CN(c3ccc(OC)cc3)C(=O)[C@@H]2CC(=O)Nc2ccc(Br)cc2)cc1
[38] COc1ccc(CNC(=O)CCCn2c(SCC#N)nc3cc4c(cc3c2=O)OCO4)cc1
[39] COc1cccc(N2CCN(S(=O)(=O)c3cc4c(cc3Cl)NC(=O)CO4)CC2)c1
[40] COc1ccc(-c2nn(-c3ccccc3)cc2/C=C2/SC(=S)N(CCC(=O)O)C2=O)cc1
[41] COc1ccc(-c2nn(-c3ccccc3)cc2/C=C2/SC(=S)N(CCC(=O)O)C2=O)c(C)c1
[42] Cc1ccc(C(C)C)c(OCC(=O)N2CCN(c3ncccn3)CC2)c1
assay / compound	33	34	35	36	37	38	39	40	41	42
Rango release inh	-4%	-19%	-1%	0%	.	-11%	1%	2%	-1%	6%
PGK inhibitor	-4%	-5%	1%	-1%	-3%	-11%	-10%	20µM*	-3%	-10%
ELG1 DNA repair	21µM*	?	?	9.2µM*	.	23µM*	16%	-22%	-18%	10%
Rango complex inh	-1%	0%	-3%	-2%	.	1%	3%	2%	0%	-2%
Tb PFK block	0%	-8%	1%	14%	.	2%	1%	0%	0%	3%
PKM2 act	2%	1%	.	.	.	1%	-8%	.	-14%[11.5 µM]	.

High-throughput results (PubChem BioAssay)
